The chains behind the UniProt entries cited, without tags or fusion partners. Where a name states a change or a piece, a line headed by the entry shows the natural chain unless it says otherwise.
UniProt P41145: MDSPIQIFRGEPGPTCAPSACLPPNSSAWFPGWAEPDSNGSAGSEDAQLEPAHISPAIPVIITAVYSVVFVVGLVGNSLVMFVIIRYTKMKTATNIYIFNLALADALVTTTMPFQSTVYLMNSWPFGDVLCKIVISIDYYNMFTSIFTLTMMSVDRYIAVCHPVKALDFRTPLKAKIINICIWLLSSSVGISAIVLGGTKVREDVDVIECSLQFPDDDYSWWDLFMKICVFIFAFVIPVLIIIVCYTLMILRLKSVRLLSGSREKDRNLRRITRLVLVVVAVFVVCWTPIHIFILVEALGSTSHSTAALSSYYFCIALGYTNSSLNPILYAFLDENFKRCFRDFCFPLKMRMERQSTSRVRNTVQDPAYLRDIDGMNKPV

In publication PMC8513079 (Molecules, 2021):

Molecular target: KOR (Halotag-KOR) in HEK293 cells (Homo sapiens, UniProt P41145)
Assay: cADDis cAMP assay, KOR
Assay type: cell-based
Details: relative to 10^−5 M U-50488H, cADDis sensor, 50 μM forskolin, 28 °C, 40 min reading, 10^−11–10^−5 M, means ± S.E.M., three independent experiments (n = 3–5), Figure 4, + p < 0.05 vs U-50488H

CN(C(=O)Cc1ccc(Cl)c(Cl)c1)[C@@H]1CCCC[C@H]1N1CCCC1
Emax, cAMP assay, KOR (Table 1): 100.0 ± 3.0%
